Data published in paper PMC9930781, “Design, synthesis, docking, and anticancer evaluations of new thiazolo[3,2-a] pyrimidines as topoisomerase II inhibitors” (Journal of Enzyme Inhibition and Medicinal Chemistry, 2023).

Chains of the proteins cited; added tags and fusions are not shown. Lines headed by an entry give the natural chain unless they say otherwise; changes in a name come on top.
UniProt P11388: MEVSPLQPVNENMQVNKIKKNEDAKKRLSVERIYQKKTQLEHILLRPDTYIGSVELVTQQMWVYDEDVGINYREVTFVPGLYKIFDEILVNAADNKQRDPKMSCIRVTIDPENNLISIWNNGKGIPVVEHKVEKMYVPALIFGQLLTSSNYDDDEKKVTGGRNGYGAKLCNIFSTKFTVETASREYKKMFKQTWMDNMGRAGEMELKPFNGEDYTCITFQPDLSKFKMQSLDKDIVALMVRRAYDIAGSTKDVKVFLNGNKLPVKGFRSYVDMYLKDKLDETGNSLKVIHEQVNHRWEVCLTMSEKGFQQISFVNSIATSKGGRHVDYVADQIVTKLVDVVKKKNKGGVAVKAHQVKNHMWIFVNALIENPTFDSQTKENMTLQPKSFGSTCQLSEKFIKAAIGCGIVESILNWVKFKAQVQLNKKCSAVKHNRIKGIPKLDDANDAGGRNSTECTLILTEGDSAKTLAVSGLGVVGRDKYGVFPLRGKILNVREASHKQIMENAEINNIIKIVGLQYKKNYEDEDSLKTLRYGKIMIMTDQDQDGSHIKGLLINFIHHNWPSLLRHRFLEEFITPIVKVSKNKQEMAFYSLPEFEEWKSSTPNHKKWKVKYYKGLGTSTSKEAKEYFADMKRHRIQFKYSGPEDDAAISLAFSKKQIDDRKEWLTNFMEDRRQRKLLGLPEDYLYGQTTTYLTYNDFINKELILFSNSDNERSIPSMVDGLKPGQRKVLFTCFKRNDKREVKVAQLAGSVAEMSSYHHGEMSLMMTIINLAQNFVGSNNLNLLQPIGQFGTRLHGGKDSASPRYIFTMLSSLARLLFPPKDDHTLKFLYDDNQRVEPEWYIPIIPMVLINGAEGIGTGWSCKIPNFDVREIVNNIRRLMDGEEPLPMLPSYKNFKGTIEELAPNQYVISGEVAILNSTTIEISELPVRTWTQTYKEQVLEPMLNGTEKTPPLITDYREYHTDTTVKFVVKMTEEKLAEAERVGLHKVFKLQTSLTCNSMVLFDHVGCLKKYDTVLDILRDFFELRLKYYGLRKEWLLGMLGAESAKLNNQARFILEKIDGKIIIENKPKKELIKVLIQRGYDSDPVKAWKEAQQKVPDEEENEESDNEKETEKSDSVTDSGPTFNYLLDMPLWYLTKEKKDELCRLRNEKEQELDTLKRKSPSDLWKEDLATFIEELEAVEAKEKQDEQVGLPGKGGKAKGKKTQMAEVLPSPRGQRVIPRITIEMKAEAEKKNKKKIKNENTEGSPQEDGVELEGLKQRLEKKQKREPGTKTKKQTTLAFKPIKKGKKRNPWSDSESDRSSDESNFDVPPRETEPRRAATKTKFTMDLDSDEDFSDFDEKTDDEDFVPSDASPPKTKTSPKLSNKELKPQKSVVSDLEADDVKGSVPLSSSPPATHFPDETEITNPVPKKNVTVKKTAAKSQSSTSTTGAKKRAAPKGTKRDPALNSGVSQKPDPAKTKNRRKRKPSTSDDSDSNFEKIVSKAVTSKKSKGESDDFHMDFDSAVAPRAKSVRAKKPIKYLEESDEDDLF

Target: human topoisomerase II (Homo sapiens, UniProt P11388)
Assay: DNA Topo II inhibition (kDNA decatenation) assay
Assay type: biochemical
Settings: four concentrations 0.1-100 µM, mean ± SD of two independent assays
Method: The ATP-dependent decatenation of kinetoplast DNA (kDNA) obtained from Crithidia fasciculata, which consists of a network of numerous minicircles (2.3 Kb) and some maxicircles, was used to measure topoisomerase II inhibition. Reactions took place in 20 μL and comprised topoisomerase II, 200–300 ng of kDNA, and 120 mM KCl with 50 mM Tris-HCl, pH 8, 10 mM MgCl2, 0.5 mM ATP, and 0.5 mM dithiothreitol. In preliminary tests, the quantity of topoisomerase II (5 units) was changed to decatenate almost 100% of the kDNA under these assay circumstances. […] The products in the reaction mixture were separated by a 1% agarose gel after the reaction was complete and then could be seen after being stained with ethidium bromide (0.2 μg/mL). The gels were run at 100 V for about 40 min and visualised under UV transillumination.
This assay is based on the fact that human Topo II can decatenate interlinked double-stranded DNA molecules.

With `COc1cccc2c1C(=O)c1c(O)c3c(c(O)c1C2=O)C[C@@](O)(C(=O)CO)C[C@@H]3O[C@H]1C[C@H](N)[C@H](O)[C@H](C)O1` [Doxorubicin, reference compound] as the molecule, how does the IC50 read?
The IC50 was 830 ± 50 nM.
